We go through two compounds from ChEMBL document CHEMBL2062428.

Protein sequences, listed by entry. Tags and fused reporters are not part of them.
UniProt P23219, whole entry: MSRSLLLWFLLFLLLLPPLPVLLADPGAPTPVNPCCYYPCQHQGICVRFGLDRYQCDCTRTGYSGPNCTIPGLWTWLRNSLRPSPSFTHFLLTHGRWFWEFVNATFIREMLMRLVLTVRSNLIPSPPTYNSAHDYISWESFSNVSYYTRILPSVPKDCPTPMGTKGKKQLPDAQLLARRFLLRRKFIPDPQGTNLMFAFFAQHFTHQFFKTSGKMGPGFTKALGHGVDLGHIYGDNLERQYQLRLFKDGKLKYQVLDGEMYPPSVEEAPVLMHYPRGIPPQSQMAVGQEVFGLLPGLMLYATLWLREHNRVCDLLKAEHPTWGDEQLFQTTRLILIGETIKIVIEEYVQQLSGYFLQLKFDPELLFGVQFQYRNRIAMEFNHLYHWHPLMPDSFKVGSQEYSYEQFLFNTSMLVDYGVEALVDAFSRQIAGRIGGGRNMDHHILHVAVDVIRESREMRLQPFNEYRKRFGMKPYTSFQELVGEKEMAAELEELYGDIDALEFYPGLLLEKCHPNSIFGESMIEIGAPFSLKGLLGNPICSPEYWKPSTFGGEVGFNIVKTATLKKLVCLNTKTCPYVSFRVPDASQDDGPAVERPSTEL

Assay [1] deals with Prostaglandin G/H synthase 1 (Homo sapiens, UniProt P23219). The assay is classed as cell-based, OVCAR-3.
Assay [2] is described as follows: Selectivity ratio of IC50 for mouse COX2 to IC50 for ovine COX1.

For the compound `O=C(CC1=C/C(=C\c2ccc(-c3ccccc3)cc2)c2ccc(F)cc21)NS(=O)(=O)C(F)(F)F`, inhibition in assay [1] was half-maximal at 0.495 µM (IC50). Besides, the Ratio IC50 in assay [2] amounted to 30.

Take `O=C(O)CC1=C/C(=C\c2ccc(-c3ccccc3)cc2)c2ccc(F)cc21`: in assay [1], the midpoint of inhibition, the IC50, lay at 0.3 µM.
